Measured values: ChEMBL document CHEMBL3046664, “Synthesis in vitro/in vivo evaluation and in silico physicochemical study of prodrug approach for brain targeting of alkylating agent” (Med Chem Res, 2013)

What was measured:
Brain [1] = assay: Half life in Rattus norvegicus (rat) brain homogenate assessed as conversion to 1-Ethyl-3-{(bis(2-chloroethyl)amino)carbamoyl}-pyridinium iodide at 6.25 x 10^-4 M by UV-spectrophotometric analysis; details: in vivo, 625 µM
Blood [2] = assay: Half life in 100% Rattus norvegicus (rat) whole blood assessed as conversion to 1-Ethyl-3-{(bis(2-chloroethyl)amino)carbamoyl}-pyridinium iodide at 10 x 10^-4 M by UV-spectrophotometric analysis; details: 1000 µM
[3] = Half life in silver nitrate solution assessed as conversion to 1-Ethyl-3-{(bis(2-chloroethyl)amino)carbamoyl}-pyridinium iodide at 5% after 2 min by UV-Visible spectrophotometric analysis
Brain [4] = assay: Half life in Rattus norvegicus (rat) brain homogenate assessed as conversion to 1-Propyl-3-{(bis(2-chloroethyl)amino)carbamoyl}pyridinium bromide at 6.25 x 10^-4 M by UV-spectrophotometric analysis; details: in vivo, 625 µM
Blood [5] = assay: Half life in 100% Homo sapiens (human) whole blood assessed as conversion to 1-Propyl-3-{(bis(2-chloroethyl)amino)carbamoyl}pyridinium bromide at 10 x 10^-4 M by UV-spectrophotometric analysis; details: 1000 µM
[6] = Half life in silver nitrate solution assessed as conversion to 1-Propyl-3-{(bis(2-chloroethyl)amino)carbamoyl}pyridinium bromide at 5% after 2 min by UV-Visible spectrophotometric analysis

SMILES: CCN1C=CCC(C(=O)N(CCCl)CCCl)=C1
- t1/2 (Brain [1]): 14.4 min
- t1/2 (Blood [2]): 10.2 min
- t1/2 [3]: 6 min

SMILES: CCCN1C=CCC(C(=O)N(CCCl)CCCl)=C1
- t1/2 (Brain [4]): 17 min
- t1/2 (Blood [5]): 21 min
- t1/2 [6]: 8 min
